Measurements reported in patent publication US20140086936A1.

Assays:
[1] = target: T1, Recombinant purified human matriptase (amino acids 596-855) (human), Q9Y5Y6; test: enzyme inhibition, selectivity profile, Morrison tight-binding fit
T1 chain: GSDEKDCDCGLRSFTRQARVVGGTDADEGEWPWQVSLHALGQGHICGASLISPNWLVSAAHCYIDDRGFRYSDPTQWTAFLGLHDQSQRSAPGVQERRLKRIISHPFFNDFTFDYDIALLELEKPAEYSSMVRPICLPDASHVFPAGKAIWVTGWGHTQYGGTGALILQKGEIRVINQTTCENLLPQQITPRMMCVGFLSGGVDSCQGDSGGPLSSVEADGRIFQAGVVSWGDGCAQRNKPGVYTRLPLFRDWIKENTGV

[2] = target: T1, Recombinant purified human matriptase …; test: enzyme inhibition, fluorogenic substrate Boc-Gln-Ala-Arg-AMC, Morrison tight-binding fit

Ki [1]: 0.011 nM
Ki [2]: 0.011 nM
Binder: RQAR (modifications not checked) [RQAR-ketobenzothiazole]
